In PubChem BioAssay AID489030 (Sanford-Burnham Center for Chemical Genomics, 2010):
The entries are a selection whose mix differs from that of the whole data set. Active and inactive are the calls of the source. Rule for the calls: active = inhibition of at least 40% at 20 µM; inactive = the rest.

The chains behind the UniProt entries cited, without tags or fusion partners. Where a name states a change or a piece, a line headed by the entry shows the natural chain unless it says otherwise.
UniProt O14727: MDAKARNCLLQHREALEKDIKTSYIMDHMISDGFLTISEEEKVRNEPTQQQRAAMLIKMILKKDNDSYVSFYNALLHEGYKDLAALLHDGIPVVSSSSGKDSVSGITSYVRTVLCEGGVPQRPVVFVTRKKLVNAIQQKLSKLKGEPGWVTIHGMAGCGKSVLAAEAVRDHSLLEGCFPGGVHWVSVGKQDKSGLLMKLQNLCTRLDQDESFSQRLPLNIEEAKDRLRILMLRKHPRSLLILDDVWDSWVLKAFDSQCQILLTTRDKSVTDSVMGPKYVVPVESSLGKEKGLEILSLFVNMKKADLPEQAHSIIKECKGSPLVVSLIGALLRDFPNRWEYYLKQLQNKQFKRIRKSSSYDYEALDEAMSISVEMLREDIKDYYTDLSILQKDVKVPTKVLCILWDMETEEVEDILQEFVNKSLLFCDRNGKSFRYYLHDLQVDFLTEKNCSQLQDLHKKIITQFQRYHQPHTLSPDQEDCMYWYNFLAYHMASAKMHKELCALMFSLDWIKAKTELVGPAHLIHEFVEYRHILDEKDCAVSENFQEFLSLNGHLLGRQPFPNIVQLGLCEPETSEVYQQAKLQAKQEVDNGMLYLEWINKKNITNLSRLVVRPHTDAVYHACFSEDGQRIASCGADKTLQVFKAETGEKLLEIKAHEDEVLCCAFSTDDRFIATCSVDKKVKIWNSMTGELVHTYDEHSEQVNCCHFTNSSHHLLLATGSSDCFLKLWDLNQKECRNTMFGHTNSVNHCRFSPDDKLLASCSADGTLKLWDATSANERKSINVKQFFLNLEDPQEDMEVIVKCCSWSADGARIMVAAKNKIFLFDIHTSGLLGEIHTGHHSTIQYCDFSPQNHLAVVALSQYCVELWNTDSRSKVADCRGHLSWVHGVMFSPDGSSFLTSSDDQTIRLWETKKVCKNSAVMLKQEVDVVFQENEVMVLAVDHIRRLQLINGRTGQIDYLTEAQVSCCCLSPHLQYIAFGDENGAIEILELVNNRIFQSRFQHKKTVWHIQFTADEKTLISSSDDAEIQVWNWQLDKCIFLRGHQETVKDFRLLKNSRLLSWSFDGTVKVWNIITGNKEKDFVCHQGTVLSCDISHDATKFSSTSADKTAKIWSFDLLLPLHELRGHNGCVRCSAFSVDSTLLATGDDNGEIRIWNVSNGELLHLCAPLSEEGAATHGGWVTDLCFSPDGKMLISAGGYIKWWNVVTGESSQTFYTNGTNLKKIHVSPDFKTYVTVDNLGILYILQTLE

target: Apoptotic protease-activating factor 1 (Homo sapiens) (UniProt O14727); experiment: inhibitors of human Apaf-1 apoptosome, primary screen, biochemical, DEVD-Rh110 fluorescence, uHTS (AID 489030); conditions: reconstituted apoptosome caspase-3 activity, at 20 µM, active compounds read high;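 note: plate controls were DMSO wells for no effect and DEVD-CHO caspase inhibitor wells for full effect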

SMILES | inhibition
Cc1cc(SC(NC(=O)c2ccccc2)C(Cl)(Cl)Cl)nc(C(C)C)n1 (centres undefined) | inactive: 1.72%
CCCCOc1ccc(C(=O)NCC2(N3CCCCC3)CCCCC2)cc1OC | inactive: -4.39%
CCOC(=O)Nc1ccc([As](=O)(O)O)c(O)c1 | inactive: 0.404%
O=P(Nc1ccccn1)(c1cccc2ccccc12)c1cccc2ccccc12 | inactive: 17.1%
Cc1cc(SC(NC=O)C(Cl)(Cl)Cl)ncn1 (centres undefined) | inactive: 1.18%
CCOC(=O)Nc1cccc([As](=O)(O)O)c1 | inactive: -5.7%
O=C(Nc1ccncc1[N+](=O)[O-])c1ccc([N+](=O)[O-])cc1[N+](=O)[O-] | inactive: -2.59%
O=C(COc1ccccc1)OC1CN2CCC1CC2 (centres undefined) | inactive: 5.03%
COP1(=S)c2c(C)nn(CCC#N)c2N=C(c2ccc(F)cc2)N1C (centres undefined) | inactive: -17%
CCC(C)N(CC(C)C)C(=S)SC(NC(C)=O)C(Cl)(Cl)Cl (centres undefined) | inactive: -2.35%
O=C(OC1CN2CCC1CC2)c1cccc([N+](=O)[O-])c1 (centres undefined) | inactive: -3.42%
CCOC(=O)c1ccc(NC(=O)C(C)(CCl)SC)cc1 (centres undefined) | inactive: -1.16%
COc1cc(I)ccc1[As](=O)(O)O | inactive: -15.2%
COc1ccc2nc(NP(=O)(c3ccccc3)c3ccccc3)sc2c1 | inactive: 2%
Cc1c2c(nc3ccccc13)SC(C(Cl)Cl)C2 (centres undefined) | inactive: -0.301%
Cc1cc(=O)[nH]c(N[N+](=O)[O-])n1 | inactive: -3.84%
O=C(OC1CN2CCC1CC2)C12CC3CC(CC(C3)C1)C2 (centres undefined) | inactive: 7.92%
COc1ccc(N/C(=N/P(=O)(N2CCOCC2)N2CCOCC2)N2CCOCC2)cc1 | inactive: -5.05%
Cc1ccc(OP(=O)(Nc2ccc([N+](=O)[O-])cn2)Oc2ccc(C)cc2)cc1 | inactive: 20.5%
Cc1ccc2nc3c(c(C)c2c1)CC(C(Cl)Cl)S3 (centres undefined) | inactive: 8.94%
COc1cc(C(=O)NCC2(N3CCOCC3)CCCCC2)ccc1OCC(C)C | inactive: 6.76%
C[As](=O)(O)c1cccc(C(=O)O)c1 | inactive: 0.19%

SMILES | inhibition
O=[As](O)(c1ccc(O)cc1)c1ccccc1O | inactive: -244%
O=[N+]([O-])c1cc([N+](=O)[O-])c(-c2ccn[nH]2)s1 | inactive: 3.93%
O=C(OC1CN2CCC1CC2)c1cccc2[nH]cnc12 (centres undefined) | inactive: 0.405%
CCN(CC)C(=S)SC(NC=O)C(Cl)(Cl)Cl (centres undefined) | inactive: 2.75%
CC(C)NC(=O)NP(=O)(Oc1ccccc1)Oc1ccccc1 | inactive: -7.79%
ClCCSc1nnc(-c2cccnc2)o1 | inactive: -30.6%
CC(C)c1ccc(OP(=O)(Nc2ccccn2)Oc2ccccc2F)cc1 (centres undefined) | inactive: 6.65%
Nc1ccccc1[As](=O)(O)c1ccccc1 | inactive: 8.28%
O=C(O)COc1ccc([As](=O)(O)O)cc1[N+](=O)[O-] | inactive: -3.15%
O=P(Nc1nccs1)(c1ccccc1)c1nc2ccccc2s1 (centres undefined) | inactive: 6.54%
O=P(Nc1nccs1)(Oc1ccccc1)Oc1ccccc1 | inactive: 8.87%
CCOP1(=S)c2c(C)nn(CCC#N)c2N=C(c2ccccc2F)N1C (centres undefined) | inactive: -16.1%
CS(=O)(=O)c1cc([N+](=O)[O-])c2no[n+]([O-])c2c1 | inactive: 11.9%
CCOP1(=S)c2c(C)nn(CCC#N)c2N=C(c2ccc(F)cc2)N1C (centres undefined) | inactive: -17.2%
CN(C(=O)Cc1ccccc1)[C@@H]1CC[C@]2(CCCO2)C[C@H]1N1CCCC1 | inactive: -7.03%
N#CCCN(C(=O)COC(=O)C(O)(c1ccccc1)c1ccccc1)c1ccc(F)cc1 | inactive: -3.31%
CN(C(=O)Cc1ccc(Cl)c(Cl)c1)[C@H]1CC[C@@]2(CCCO2)C[C@@H]1N1CCCC1 | inactive: -4.78%
CN(C)C(=O)c1cc([N+](=O)[O-])cc2c1-c1c(cc([N+](=O)[O-])cc1[N+](=O)[O-])C2=O | inactive: 24.9%
O=[N+]([O-])c1ccc2c(c1)nnn2O | inactive: -13.1%
NC(=O)Nc1ccc([As](=O)(O)O)cc1 | inactive: -1.24%
O=[As](O)(c1cccc(O)c1)c1cccc(O)c1 | inactive: -23.5%
Cc1cccc(OCC(=O)OC2CN3CCC2CC3)c1 (centres undefined) | inactive: 2.27%

SMILES | inhibition
O=C(OC1CN2CCC1CC2)c1ccc(Cl)cc1 (centres undefined) | inactive: -21.2%
CS(=O)(=O)c1ccc(Cl)c(NC(=O)COC(=O)C(O)(c2ccccc2)c2ccccc2)c1 | inactive: -7.46%
COc1cc(C(=O)NCC2(N3CCOCC3)CCCCC2)cc(Cl)c1OC(C)C | inactive: 10.5%
O=[As](O)(O)c1cccnc1 | inactive: -3.55%
CCOP(=O)(Nc1cccc2ccccc12)OCC | inactive: -12.9%
COc1cc(C2NCCC3(OCCO3)C2(C)C)cc(OC)c1OC (centres undefined) | inactive: -7.35%
Cc1ccc(NCCc2c([N+](=O)[O-])cc([N+](=O)[O-])cc2[N+](=O)[O-])cc1 | inactive: 20.4%
CCCOP(=S)(Nc1nc(N)cc(=O)[nH]1)OCCC | inactive: 16.3%
CC(C)(C)C(=O)NC(Sc1ncccn1)C(Cl)(Cl)Cl (centres undefined) | inactive: 1.81%
Clc1n[nH]nc1-c1nn[nH][15n]1 | inactive: -4.96%
CCOP(=O)(NC(=NC(C)c1ccccc1)NC(C)c1ccccc1)OCC (centres undefined) | inactive: 11.7%
O=P1(Nc2ccccn2)COc2ccccc2OC1 | inactive: 0.297%
CCC1=CC2Cc3nc4ccc(Cl)cc4c(N)c3C(C1)C2 (centres undefined) | inactive: 15.1%
CN(CCCl)Cc1cc(Cl)c(NC2=NCCN2)c(Cl)c1 | inactive: 3.37%
CCOP(=O)(Nc1ccc(C)cn1)OCC | inactive: 3.33%
CC(C)/C=N\N=C(\N)N[N+](=O)[O-] | inactive: 4.15%
CN(C(=O)Cc1ccc(Cl)c(Cl)c1)[C@@H]1CCCC[C@H]1N1CCCC1 | inactive: 17.1%
CC1(CBr)Cn2c(nc3ccccc3c2=O)S1 (centres undefined) | inactive: -3.27%
O=[As](O)(c1ccccc1Br)c1ccccc1Br | inactive: 0.619%
COc1ccccc1CNC(=O)COC(=O)C(O)(c1ccccc1)c1ccccc1 | inactive: 8.71%
